In patent publication US20070207975A1, “Materials and methods for treating and preventing Her-2/neu overexpressing, FAS-elevated cancer cells” (EVANSTON NORTHWESTERN HEALTHCARE, priority 2006, published 2007):

Tested on: SK-Br3 cells
Assay: TUNEL apoptosis assay, SK-Br3
Type: cell-based, human
Conditions: GLA 10 μg/mL, trastuzumab 10 μg/mL, alone or together, 48 hours
Description: FIG. 6. […] After 72 hours, a TUNEL analysis was performed using the DeadEnd® Fluorometric TUNEL System (Promega Inc.) according to the manufacturer's protocol. The immunofluorescence photomicrographs of cells undergoing apoptosis (green staining) and the corresponding DAPI-counterstained photomicrographs are shown. […] Equal amounts of total protein (50 μg per lane) were subjected to Western blot analyses with a specific antibody against the p85 fragment of PARP, and then re-probed with a β-actin antibody. […] Similar results were obtained in three independent experiments. […] A) Cell surface expression of Her-2/neu protein in BT-474 and SK-Br3 cells was determined by flow cytometry using a mouse anti-Her-2/neu antibody directed against the extracellular domain of the p185^Her-2/neu oncoprotein (clone Ab-5; Oncogene Research Products; San Diego, Calif.). […] The mean fluorescence signal associated with cells for labeled p185^Her-2/neu was quantified using the Geo Mean (GM) fluorescence parameter provided with the software. […] Immunoreactive bands were detected by enhanced chemiluminescence reagent (Pierce, Rockford, Ill.). […] Densitometric values of protein bands were quantified using Scion Imaging Software (Scion Corp., Frederick, Md.). […]

Substance: trastuzumab: humanized monoclonal IgG1, binding with high affinity to the ectodomain of p185^Her-2/neu [reference compound]
- cells that underwent apoptosis (TUNEL): 11% (95% CI=9% to 13%)
